Consider six molecules from patent US9643957B2, “Heterocyclic compounds having cholesterol 24-hydroxylase activity” (TAKEDA PHARMACEUTICAL COMPANY LIMITED, priority 2012, dated 2017).

By UniProt entry, the sequences of proteins in these tests, tags left out. Where a name states a change or a piece, a line headed by the entry shows the natural chain unless it says otherwise.
UniProt Q9Y6A2: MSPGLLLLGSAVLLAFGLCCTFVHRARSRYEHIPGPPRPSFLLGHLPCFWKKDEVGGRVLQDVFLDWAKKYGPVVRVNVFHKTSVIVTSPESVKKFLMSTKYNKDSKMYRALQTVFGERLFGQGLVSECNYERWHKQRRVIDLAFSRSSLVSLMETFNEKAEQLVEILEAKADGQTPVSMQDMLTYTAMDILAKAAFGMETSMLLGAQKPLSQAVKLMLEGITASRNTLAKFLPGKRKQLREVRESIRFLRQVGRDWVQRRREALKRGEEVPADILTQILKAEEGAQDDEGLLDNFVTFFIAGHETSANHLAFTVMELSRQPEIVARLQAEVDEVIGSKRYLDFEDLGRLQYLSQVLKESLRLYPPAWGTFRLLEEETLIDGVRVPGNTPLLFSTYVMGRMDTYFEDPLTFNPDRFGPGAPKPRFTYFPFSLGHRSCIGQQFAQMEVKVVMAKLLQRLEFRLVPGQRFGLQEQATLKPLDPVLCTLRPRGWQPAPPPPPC

This experiment has as its target T1, human CH24H (Homo sapiens, UniProt Q9Y6A2).
T1 construct: Using Full-Length Mammalian Gene Collection No. 4819975 (Invitrogen) as a template; made in house; host or cells: FreeStyle 293-F cells, transient transfection with pcDNA3.1(+)/hCH24H; lysate supernatant, not purified
Description: Measurement of CH24H inhibitory activity (24-HC produced from [14C] cholesterol by human CH24H lysate). It counts as biochemical. Conditions: 1 μM test compound, [14C] cholesterol 15 μM, 37° C. for 5 hr, read-out: Inhibitory Rate in 1 μM (%). As for the experimental part:
The expression of human CH24H was performed using FreeStyle 293 Expression System (Invitrogen). […] After transfection, the cells were cultured at 37° C., 8% CO2 with shaking at 125 rpm for 2 days. The cells were collected by centrifugation, and suspended in a suspension buffer (100 mM potassium phosphate (pH 7.4), 0.1 mM EDTA, 1 mM DTT, 20% Glycerol). The suspended product was disrupted by a polytron homogenizer (manufactured by Kinematica), and centrifuged at 9000×g for 10 min, and the supernatant was collected. The collected supernatant was cryopreserved (−80° C.) as a human CH24H lysate standard product.
For the measurement of CH24H inhibitory activity, using the human CH24H lysate prepared in Experimental Example 2, the amount of 24-HC produced from cholesterol by catalytic activity of CH24H was measured in the presence of a test compound, and compared with that measured in the absence of the test compound. That is, a test compound solution at various concentrations was mixed with a reaction buffer (50 mM potassium phosphate containing 0.1% BSA and Complete, EDTA-free, pH 7.4) and human CH24H lysate. Then, [^14C] cholesterol (53 mCi/mmol specific activity, 15 μM) was added, and CH24H reaction was performed at 37° C. for 5 hr. After completion of the reaction, a quenching solution consisting of chloroform/methanol/distilled water (2:2:1 v/v) was added, and the resulting 24-HC was extracted by shaking. The extract was applied to silica gel thin layer chromatography (ethyl acetate:toluene=4:6), and the obtained ^14C-24HC fraction was measured with BAS2500 (Fujifilm Corporation).
The inhibitory rate (%) was calculated from the ratio of radioactivity in the presence of a test compound relative to the radioactivity in the absence of the test compound.
Regarding `O=C(NC1CC1)C1CCN(c2cncnc2-c2ccccc2)CC1` [Example 180, N-cyclopropyl-1-(4-phenylpyrimidin-5-yl)piperidine-4-carboxamide], the inhibition at 1 µM was 87%. Turning to `O=C(NC1CC1)C1CCN(c2cnccc2-c2ccccc2)CC1` [Example 172, N-cyclopropyl-1-(4-phenylpyridin-3-yl)piperidine-4-carboxamide], the inhibition at 1 µM was 96%. Under `CN(C)C(=O)C1CCN(c2cnccc2-n2cc(Br)cn2)CC1` [Example 43, 1-(4-(4-bromo-1H-pyrazol-1-yl)pyridin-3-yl)-N,N-dimethylpiperidine-4-carboxamide] stands 98%; under `O=C(NC1CC1)N1CCN(c2cnccc2-c2ccccc2)CC1` [Example 153, N-cyclopropyl-4-(4-phenylpyridin-3-yl)piperazine-1-carboxamide], 85%; under `Cc1cnn(-c2ccncc2N2CCC(C(=O)N(C)C)CC2)c1` [Example 194, N,N-dimethyl-1-(4-(4-methyl-1H-pyrazol-1-yl)pyridin-3-yl)piperidine-4-carboxamide], 93%. Turning to `CN(C)C(=O)C1CCN(c2cnccc2-n2cc(C3CC3)cn2)CC1` [Example 59, 1-(4-(4-cyclopropyl-1H-pyrazol-1-yl)pyridin-3-yl)-N,N-dimethylpiperidine-4-carboxamide], the inhibition at 1 µM is 92%.
